## Yeast mating assay B: variants of the scFv Ab-14

Source: Li et al. 2023 (doi:10.1038/s41467-023-39022-2), MIT Lincoln Laboratory and A-Alpha Bio; data file from the FLAb repository.

Antigen: PDVDLGDISGINAS, a 14-residue peptide of the SARS-CoV-2 spike HR2 region.

Parent: Ab-14, a human scFv built as VH, a 15-residue (Gly4Ser)3 linker, VL. Only the CDRs of the light chain vary.
VH: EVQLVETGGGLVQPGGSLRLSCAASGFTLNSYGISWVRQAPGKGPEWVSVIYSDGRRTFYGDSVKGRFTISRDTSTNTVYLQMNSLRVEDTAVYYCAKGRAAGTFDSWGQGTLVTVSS
VL: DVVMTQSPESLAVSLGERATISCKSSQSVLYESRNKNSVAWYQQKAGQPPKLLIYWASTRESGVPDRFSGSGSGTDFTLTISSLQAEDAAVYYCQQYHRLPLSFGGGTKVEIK

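The parent was found by panning a naive human phage display library on the peptide. Designed CDR sequences, proposed from the first random library and measured here. Several design methods are mixed in this list. The assay is AlphaSeq: two haploid yeast populations carry antibody and antigen on their surface. Mating (16 h, 30 °C) was followed by selection of diploids and sequencing of their barcodes. The ratio of observed to expected reads was calibrated, replicate by replicate, on BCL2-family standards whose Kd was known from biolayer interferometry. Each pool was mated in six replicate cultures.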

Substitutions are numbered in sequence along the VL above, starting at 1 (not Kabat).
Variants here have at most six changes.
Values are apparent Kd, the geometric mean of the replicates that gave a signal; lower means stronger binding.
A pair that was not seen in any replicate is written "no signal"; this usually means weak binding, but a binder can also be missed.
The range of this assay differs from that of the first round, and the authors advise against merging the two.
Of ten entries with the parent sequence, four were seen in most replicates (averages 2.2 nM to 240 nM), three in one and three in none, so single entries are noisy.
The authors averaged sequences with at least three values out of six and counted those with two or fewer as poor binders.
As a blank, each scFv also met three strains without target: over all light chain designs, 4% of these pairings were detected, typically at 430 nM and seldom below 38 nM. The control count says in how many pairings with the empty strains this scFv gave a signal.

changes,Kd (apparent),detected,empty controls
S25L V29F W56H,940 pM,6 of 6,2 of 18
Q27G V29Y L30H W56G,1.2 nM,6 of 6,1 of 18
S25L V29Y W56N T59Q E61L,400 pM,6 of 6,0 of 18
R34Q Q95Y,no signal,0 of 6,0 of 18
S25Q W56D L102E S103I,15 nM,6 of 6,0 of 18
Q27C L30D S33D K36S W56N S62W,3.3 nM,6 of 6,2 of 18
K24M E32D P101E,no signal,0 of 6,0 of 18
S26R V29W L30T S33D,16 nM,6 of 6,1 of 18
S25L S26Q V29D W56Q,1.1 nM,6 of 6,2 of 18
Q27I V29G R34L N35M W56E,1.5 nM,6 of 6,1 of 18
S25L S26W W56N E61L,1.7 nM,6 of 6,0 of 18
S25L S26M V29T K36P W56N,690 pM,6 of 6,2 of 18
Q27N V29T,1.2 µM,2 of 6,1 of 18
W56K R60A Y97P P101M S103D,no signal,0 of 6,0 of 18
L30M W56N Y97P,21 nM,6 of 6,0 of 18
S26E Q27G S28G V29E W56N T59M,640 pM,6 of 6,0 of 18
S25V V29D L30N K36H W56H E61S,2.9 nM,6 of 6,2 of 18
Y31E R34V W56N,2.3 nM,6 of 6,0 of 18
S25V V29D W56H,800 pM,6 of 6,2 of 18
S25V S26R V29T W56D E61N,2.2 nM,6 of 6,0 of 18
S25L S26P W56N S62W,650 pM,6 of 6,0 of 18
K24H S25L Q27D,700 pM,6 of 6,0 of 18
Q27P S33D R34H W56N E61M,1.9 nM,6 of 6,0 of 18
K24I S25L W56N T59Q,350 pM,6 of 6,2 of 18
S25F Q27P W56D,430 pM,6 of 6,2 of 18
S25F V29W L30I W56G,1.9 nM,6 of 6,1 of 18
Q27I V29K K36E W56E S62Q,6.3 nM,6 of 6,1 of 18
S25L S26P V29E W56E E61L,970 pM,6 of 6,0 of 18
S25T S38N,14 nM,6 of 6,0 of 18
S25L Q27A V29M W56N,6.3 nM,6 of 6,0 of 18
S26M S28G W56G T59L,2.2 nM,6 of 6,1 of 18
L30M H98Y,60 nM,6 of 6,0 of 18
S25L L30E H98Q,17 nM,6 of 6,0 of 18
S25V S26Q V29E W56N T59Y,950 pM,6 of 6,0 of 18
Q27D L30Q S58D,140 nM,1 of 6,0 of 18
S25D S28E,no signal,0 of 6,0 of 18
S25L S33Q W56E E61C,490 pM,6 of 6,1 of 18
S25F N35Q W56N S58V S62T,840 pM,6 of 6,1 of 18
S26P V29H L30P E32G W56N T59E,6.5 nM,6 of 6,0 of 18
T59M,710 nM,6 of 6,0 of 18
S25V V29A W56E,2.4 nM,6 of 6,0 of 18
S25L V29W W56N T59Q S62Q Q96D,640 pM,6 of 6,1 of 18
Q27W V29Y Y31G R34G W56E,1.6 nM,6 of 6,0 of 18
S25V Y31M R34C K36V W56Y S62D,15 nM,6 of 6,0 of 18
S25L N35H W56G T59K L100F,750 nM,5 of 6,0 of 18
S25L S26P W56Q S62D,480 pM,6 of 6,1 of 18
V29W W56E S103H,4.1 nM,6 of 6,0 of 18
Y31K K36E H98C,no signal,0 of 6,0 of 18
S25V V29R W56N,7.4 nM,6 of 6,1 of 18
V29M W56N S58Q,6.0 nM,6 of 6,2 of 18
V29C Y31K S38H V39M W56Q S58W,no signal,0 of 6,0 of 18
S25L S26P V29M W56N T59Q,750 pM,6 of 6,1 of 18
S25L V29Q W56N T59Q E61C,680 pM,6 of 6,0 of 18
Q27W Y31Q R34N W56H S62D,1.8 nM,6 of 6,0 of 18
K24F L30G R34E,30 nM,6 of 6,3 of 18
E32L W56S Q96D Y97K R99S,14 nM,5 of 6,0 of 18
S25V S26R V29T S103M,6.4 nM,6 of 6,1 of 18
N35S W56H L102C,no signal,0 of 6,0 of 18
S26L W56H S62Q R99F L102W,2.5 nM,6 of 6,0 of 18
S25L N35V W56E,560 pM,6 of 6,0 of 18
S25V S33D W56N S103Q,150 pM,6 of 6,0 of 18
S25L L30E W56D S58Q T59Q,670 pM,6 of 6,1 of 18
K24H Q27E L30E Y31Q R34S R99K,4.6 nM,6 of 6,1 of 18
S26Y S28I S33D R99W P101L S103I,no signal,0 of 6,0 of 18
N35S W56D,14 nM,6 of 6,3 of 18
S25L V29W S38N W56S,430 pM,6 of 6,2 of 18
S28R N35I,75 nM,1 of 6,0 of 18
S25L S26P V29H W56N E61C,860 pM,6 of 6,0 of 18
S26M E32G W56Y,no signal,0 of 6,0 of 18
K24A S25L W56D,330 pM,6 of 6,1 of 18
S25M V29W L30I W56G,330 pM,6 of 6,1 of 18
S25Q S26L W56H S62D H98G,4.8 nM,6 of 6,0 of 18
K24R W56E T59E,3.3 nM,6 of 6,0 of 18
S25D S33K N35L K36C Y97G,no signal,0 of 6,0 of 18
S25L S26M V29E W56N E61M,2.3 nM,6 of 6,3 of 18
S25Q R34V W56D S62D,2.3 nM,6 of 6,0 of 18
S25L V29W L30Q W56N,1.3 nM,6 of 6,1 of 18

The closing 5 entries, repeated:

changes,Kd (apparent),detected,empty controls
K24R W56E T59E,3.3 nM,6 of 6,0 of 18
S25D S33K N35L K36C Y97G,no signal,0 of 6,0 of 18
S25L S26M V29E W56N E61M,2.3 nM,6 of 6,3 of 18
S25Q R34V W56D S62D,2.3 nM,6 of 6,0 of 18
S25L V29W L30Q W56N,1.3 nM,6 of 6,1 of 18